Like-named read-outs stand apart in the source and are kept apart here. Values belong to the molecule of their own block, whether it stands above or below them.
Molecular target: E-selectinLEC2 (Homo sapiens, UniProt P16581)
Assay: E-Selectin Activity - Binding Assay (MST, Monolith NT.115)
Settings: read-out: KD MST, 298 K, E-selectinLEC2 0.1 μM, buffer A pH 7.4 with 0.1% Tween 20, every measurement conducted once, single site binding fit
Description: The E-selectinLEC2, construct was expressed and purified according to Preston et al., J. Mol. Cell Biol. (2015). The labeling procedure was performed by blocking the binding site with an excess of a suitable ligand to prevent the dye from reacting in the binding site. Subsequently the amine reactive protein labeling kit BLUE-NHS (Nanotemper Technologies GmbH, Munich, Germany) according to the protocol of the manufacturer. Unreacted dye was removed by dialysis against buffer A (10 mM HEPES, 150 mM NaCl, 1 mM CaCl2, pH 7.4) using a Slide-A-Lyzer Dialysis cassette with 10 kDa cut-off (Thermo Scientific, Rockford, Ill., USA).
MEASUEMENT: All experiments were carried out using a Monolith™NT.115 device Nanoternper Technologies GmbH, Munich, Germany) at 298 K with 50% LED power, 30% laser power, initial delay of 5 seconds, laser on time of 30 seconds, and laser off time of 5 seconds with standard treated capillaries. Throughout all experiments the E-selectinLEC2 concentration was 0.1 μM. As starting point for the dilution series the concentration 30 times higher than the estimated KD was chosen. The compounds were diluted 1:1 with buffer A supplemented with 0.1% (v/v) Tween 20.
DATA ANALYSIS: Every measurement was conducted once. Data points were normalized using the bound and unbound borders calculated by NanoTemper Analysis 1.2.205 software (NanoTemper Technologies GmbH, Munich, Germany) and analyzed with GraphPad Prism 5.0 (GraphPad Software, La Jolla, Calif., USA). To evaluate the KD of the compounds the measurements were globally fitted using equation (1) for single site binding. A. Cooper, Biophysical Chemistry, Royal Society of Chemistry, Cambridge, 2004, Ed 1, 109-10. Equation 1 is: […]
where [PL] is the protein-ligand complex concentration and KD is the dissociation constant. CP represents the total concentration of protein and CL the total concentration of ligand.

By UniProt entry, the sequences of proteins in these tests, tags left out. Residues count along the entry.
UniProt P16581, 22-301 limits assumed: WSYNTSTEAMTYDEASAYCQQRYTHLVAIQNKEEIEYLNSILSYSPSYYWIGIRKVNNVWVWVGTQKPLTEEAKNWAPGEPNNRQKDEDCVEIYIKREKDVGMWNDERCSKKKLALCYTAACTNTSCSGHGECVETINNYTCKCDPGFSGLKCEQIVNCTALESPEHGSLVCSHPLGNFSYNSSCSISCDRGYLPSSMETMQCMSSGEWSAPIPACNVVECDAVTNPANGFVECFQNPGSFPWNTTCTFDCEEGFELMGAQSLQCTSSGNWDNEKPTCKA

Compound: CC[C@H]1CCC[C@@H](O[C@@H]2O[C@H](CO)[C@H](O)[C@H](O[C@@H](CC3CCCCC3)C(=O)N3CC(F)(F)C3)[C@H]2OC(=O)c2ccccc2)[C@@H]1O[C@@H]1O[C@@H](C(F)(F)F)[C@@H](O)[C@@H](O)[C@@H]1O
Kd: < 1000 nM

Compound: C[C@@H](O[C@@H]1O[C@@H](C(F)(F)F)[C@@H](O)[C@@H](O)[C@@H]1O)[C@@H](C)O[C@@H]1O[C@H](CO)[C@H](O)[C@H](O[C@@H](CC2CCCCC2)C(=O)O)[C@H]1O
Kd (tested form: Na salt): 55600 nM

Continued by falling Kd, values first:

Kd: 700 nM
Compound: CC[C@H]1CCC[C@@H](O[C@@H]2O[C@H](CO)[C@H](O)[C@H](O[C@@H](CC3CCCCC3)C(=O)N3CCC3)[C@H]2O)[C@@H]1O[C@@H]1O[C@@H](C(F)(F)F)[C@@H](O)[C@@H](O)[C@@H]1O

Kd: 600 nM
Compound: CC[C@H]1CCC[C@@H](O[C@@H]2O[C@H](CO)[C@H](O)[C@H](O[C@@H](CC(C)C)C(=O)N3CCC3)[C@H]2Cl)[C@@H]1O[C@@H]1O[C@@H](C(F)(F)F)[C@@H](O)[C@@H](O)[C@@H]1O

Kd: 300 nM
Compound: CC[C@H]1CCC[C@@H](O[C@@H]2O[C@H](CO)[C@H](O)[C@H](O[C@@H](CC3CCCCC3)C(=O)N3CCC3)[C@H]2OC(C)=O)[C@@H]1O[C@@H]1O[C@@H](C(F)(F)F)[C@@H](O)[C@@H](O)[C@@H]1O
